Chains of the proteins cited; added tags and fusions are not shown. Lines headed by an entry give the natural chain unless they say otherwise; changes in a name come on top.
UniProt Q15858: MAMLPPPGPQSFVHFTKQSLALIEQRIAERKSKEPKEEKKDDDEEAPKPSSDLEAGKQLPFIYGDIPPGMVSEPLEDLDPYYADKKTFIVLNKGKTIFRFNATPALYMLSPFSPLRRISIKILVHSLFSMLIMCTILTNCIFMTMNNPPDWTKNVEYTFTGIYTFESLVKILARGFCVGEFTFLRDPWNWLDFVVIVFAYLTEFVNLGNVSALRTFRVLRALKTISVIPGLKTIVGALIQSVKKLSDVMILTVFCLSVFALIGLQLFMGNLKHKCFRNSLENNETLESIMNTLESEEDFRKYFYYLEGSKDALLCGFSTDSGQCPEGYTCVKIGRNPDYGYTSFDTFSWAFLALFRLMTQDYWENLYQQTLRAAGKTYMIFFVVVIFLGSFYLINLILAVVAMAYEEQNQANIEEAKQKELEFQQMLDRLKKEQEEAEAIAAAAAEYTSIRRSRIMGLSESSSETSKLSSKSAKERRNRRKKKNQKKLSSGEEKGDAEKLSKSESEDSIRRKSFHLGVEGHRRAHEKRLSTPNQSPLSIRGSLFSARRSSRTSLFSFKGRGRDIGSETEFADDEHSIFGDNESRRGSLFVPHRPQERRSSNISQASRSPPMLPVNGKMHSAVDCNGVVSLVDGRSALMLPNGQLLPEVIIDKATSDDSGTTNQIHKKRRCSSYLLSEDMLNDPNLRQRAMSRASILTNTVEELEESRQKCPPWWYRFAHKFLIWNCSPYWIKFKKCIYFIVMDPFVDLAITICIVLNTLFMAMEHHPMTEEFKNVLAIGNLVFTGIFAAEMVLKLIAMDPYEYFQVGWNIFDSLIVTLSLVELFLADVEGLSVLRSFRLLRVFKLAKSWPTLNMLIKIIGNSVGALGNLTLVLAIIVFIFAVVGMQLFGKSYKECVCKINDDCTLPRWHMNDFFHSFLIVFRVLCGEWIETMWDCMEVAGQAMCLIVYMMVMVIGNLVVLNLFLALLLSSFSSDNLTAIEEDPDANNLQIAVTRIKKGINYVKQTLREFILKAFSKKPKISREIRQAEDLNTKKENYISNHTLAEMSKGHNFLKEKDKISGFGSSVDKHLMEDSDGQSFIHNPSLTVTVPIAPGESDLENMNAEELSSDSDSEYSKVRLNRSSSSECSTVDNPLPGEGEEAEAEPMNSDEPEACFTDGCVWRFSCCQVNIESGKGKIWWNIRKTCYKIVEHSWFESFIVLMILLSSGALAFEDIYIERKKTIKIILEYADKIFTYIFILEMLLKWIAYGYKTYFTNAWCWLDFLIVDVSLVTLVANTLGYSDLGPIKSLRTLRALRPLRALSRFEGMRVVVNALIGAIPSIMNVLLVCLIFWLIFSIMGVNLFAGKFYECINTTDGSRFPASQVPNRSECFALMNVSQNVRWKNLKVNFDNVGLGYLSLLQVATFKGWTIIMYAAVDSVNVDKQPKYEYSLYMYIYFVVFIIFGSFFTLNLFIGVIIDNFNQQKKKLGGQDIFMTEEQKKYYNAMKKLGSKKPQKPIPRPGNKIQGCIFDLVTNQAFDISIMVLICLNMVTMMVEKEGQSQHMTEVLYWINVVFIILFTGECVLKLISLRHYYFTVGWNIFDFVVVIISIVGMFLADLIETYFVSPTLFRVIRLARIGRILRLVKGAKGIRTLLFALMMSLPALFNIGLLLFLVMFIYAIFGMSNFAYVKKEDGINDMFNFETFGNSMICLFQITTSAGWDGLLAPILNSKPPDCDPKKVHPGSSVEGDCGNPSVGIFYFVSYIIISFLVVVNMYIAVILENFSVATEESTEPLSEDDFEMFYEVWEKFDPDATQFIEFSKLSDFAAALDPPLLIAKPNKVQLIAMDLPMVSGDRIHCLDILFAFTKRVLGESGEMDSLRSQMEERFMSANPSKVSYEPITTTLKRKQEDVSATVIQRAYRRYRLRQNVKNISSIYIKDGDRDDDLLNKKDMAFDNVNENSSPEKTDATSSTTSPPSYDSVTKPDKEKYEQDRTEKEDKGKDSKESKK

According to patent US20160287666A1 (priority 2015, published 2016):

Target: human Nav1.7 (Homo sapiens, UniProt Q15858, W1161R)
Format: cell-based

Row | Substance | IC50 (read-out: Nav1.7 IC50) [nM] | IC50 (read-out: hNav1.7 TETRA IC50) [nM]
1 | GPQRFVTGHFGGLYPANGAPAPAQCQKWMQTCDRERKCCEGFVCTLWCRKKLW-COOH [NV1D3811] | 87.7 | 
2 | GPQRFVTGHFGGLYPANGQCQKWMQTCDRERKCCEGFVCTLWCRKKLW-COOH [NV1D3812] | 101 | 
3 | GPRCQKWMQTCDAERKCCEGFSCRLWCKKKLW-COOH [NV1D3577] | 18.8 | 
4 | GPRCQKWMQTCDAERKCCEGFSCTLWCKKKLW-COOH [NV1D3555] | 37.4 | 
5 | GPRCQKWMQTCDAERKCCEGFVCTLWCKKKLW-COOH [NV1D3566] | 23.7 | 
6 | GPRCQKWMQTCDAERKCCEGLVCRLWCKKKLW-COOH [NV1D2896] |  | 80.3 ± 7.1
7 | GPRCQKWMQTCDAERKCCEGMVCRLWCKKKLW-COOH [NV1D2729] |  | 8 ± 0.9
8 | GPRCQKWMQTCDAKRKCCEGFSCTLWCRKKLW-COOH [NV1D3534] | 20.6 | 
9 | GPRCQKWMQTCDAKRKCCEGFVCTLWCRKKLW-COOH [NV1D3529] | 14.6 | 
10 | GPRCQKWMQTCDANRKCCEGFSCRLWCKKKLW-COOH [NV1D3584] | 13.9 | 
11 | GPRCQKWMQTCDANRKCCEGFSCTLWCKKKLW-COOH [NV1D3558] | 26.7 | 
12 | GPRCQKWMQTCDANRKCCEGFVCTLWCKKKLW-COOH [NV1D3573] | 64.7 | 
13 | GPRCQKWMQTCDARRKCCEGFSCRLWCKKKLW-COOH [NV1D3580] | 8.4 | 
14 | GPRCQKWMQTCDARRKCCEGFSCTLWCKKKLW-COOH [NV1D3562] | 23.6 | 
15 | GPRCQKWMQTCDARRKCCEGFVCTLWCKKKLW-COOH [NV1D3569] | 11.9 | 
16 | GPRCQKWMQTCDRERKCCEGFSCTLWCRKKLW-COOH [NV1D3551] | 29.3 | 
17 | GPRCQKWMQTCDRERKCCEGFVCTLWCRKKLW-COOH [NV1D3547] | 26.5 | 
18 | GPRCQKWMQTCDRNRKCCEGFSCTLWCRKKLW-COOH [NV1D3543] | 23.8 | 
19 | GPRCQKWMQTCDRNRKCCEGFVCTLWCRKKLW-COOH [NV1D3538] | 11.6 | 
20 | GPRCQKWMQTCDSERKCCEGFVCRLWCKKKLW-COOH [NV1D2733] | 7.54 | 
21 | GPRCQKWMQTCDSERKCCEGMVCRLWCKKKLW-COOH [NV1D2668] |  | 17.5 ± 2.6
22 | GPRCQKWMWTCDAERKCCEGMVCRLWCKKKLW-COOH [NV1D2672] |  | 4.5 ± 0.3
23 | GPRCQKWMWTCDSERKCCEGFVCRLWCKKKLW-COOH [NV1D2662] | 4.03 | 
24 | GPRRRRRRRRRRRAPAPAPAPAPQCQKWMQTCDRERKCCEGFVCTLWCRKKLW-COOH [NV1D3813] | 139 | 
25 | GPRRRRRRRRRRRQCQKWMQTCDRERKCCEGFVCTLWCRKKLW-COOH [NV1D3815] | 102 | 
26 | GPSCQKWMQTCDAERKCCEGFSCRLWCKKKLW-COOH [NV1D2969] | 31 | 

Row | Substance | IC50 (read-out: Nav1.7 IC50) [nM] | IC50 (read-out: hNav1.7 TETRA IC50) [nM]
27 | GPSCQKWMQTCDAERKCCEGFSCTLWCKKKLW-COOH [NV1D2971] | 77.5 | 
28 | GPSCQKWMQTCDAERKCCEGFVCTLWCKKKLW-COOH [NV1D2970] | 58 | 
29 | GPSCQKWMQTCDAERKCCEGLVCRLWCKKKLW-COOH [NV1D2899] |  | 33.3 ± 6.7
30 | GPSCQKWMQTCDAERKCCEGMVCRLWCKKKLW-COOH [NV1D2730] |  | 25.5 ± 4.3
31 | GPSCQKWMQTCDAKRKCCEGFSCTLWCRKKLW-COOH [NV1D3535] | 18.7 | 
32 | GPSCQKWMQTCDAKRKCCEGFVCTLWCRKKLW-COOH [NV1D3530] | 15.6 | 
33 | GPSCQKWMQTCDANRKCCEGFSCRLWCKKKLW-COOH [NV1D3585] | 19.4 | 
34 | GPSCQKWMQTCDANRKCCEGFSCTLWCKKKLW-COOH [NV1D3559] | 26.5 | 
35 | GPSCQKWMQTCDANRKCCEGFVCTLWCKKKLW-COOH [NV1D3574] | 22.3 | 
36 | GPSCQKWMQTCDARRKCCEGFSCRLWCKKKLW-COOH [NV1D3581] | 14.6 | 
37 | GPSCQKWMQTCDARRKCCEGFSCTLWCKKKLW-COOH [NV1D3563] | 22.4 | 
38 | GPSCQKWMQTCDARRKCCEGFVCTLWCKKKLW-COOH [NV1D3570] | 18.1 | 
39 | GPSCQKWMQTCDRERKCCEGFSCTLWCRKKLW-COOH [NV1D3552] | 28.1 | 
40 | GPSCQKWMQTCDRERKCCEGFVCTLWCRKKLW-COOH [NV1D3548] | 17.6 | 
41 | GPSCQKWMQTCDRNRKCCEGFSCTLWCRKKLW-COOH [NV1D3544] | 17.8 | 
42 | GPSCQKWMQTCDRNRKCCEGFVCTLWCRKKLW-COOH [NV1D3539] | 19.4 | 
43 | GPSCQKWMQTCDSERKCCEGFVCRLWCKKKLW-COOH [NV1D2734] |  | 13.4 ± 0.8
44 | GPSCQKWMQTCDSERKCCEGMVCRLWCKKKLW-COOH [NV1D2669] |  | 18.4 ± 5.7
45 | GPSCQKWMWTCDAERKCCEGFVCRLWCKKKLW-COOH [NV1D2738] | 2.57 | 
46 | GPSCQKWMWTCDAERKCCEGMVCRLWCKKKLW-COOH [NV1D2673] | 4.31 | 
47 | GPSCQKWMWTCDSERKCCEGFVCRLWCKKKLW-COOH [NV1D2663] | 4.19 | 
48 | GPSHSNTQTLAKAPEHTGQCQKWMQTCDRERKCCEGFVCTLWCRKKLW-COOH [NV1D3777] | 64.9 | 
49 | GPSPGARAFAPAPAPAPAPQCQKWMQTCDRERKCCEGFVCTLWCRKKLW-COOH [NV1D3801] | 88.1 | 
50 | GPSPGARAFAPAPAQCQKWMQTCDRERKCCEGFVCTLWCRKKLW-COOH [NV1D3802] | 68 | 
51 | GPSPGARAFQCQKWMQTCDRERKCCEGFVCTLWCRKKLW-COOH [NV1D3803] | 32.3 | 
52 | GPYCQKWMQTCDAERKCCEGFSCRLWCKKKLW-COOH [NV1D3578] | 50.7 | 

Where two headings read alike, the source gives them in different places.
